In the test the target is dopamine D1 (Homo sapiens, UniProt P21728). Put plainly: binding affinity for dopamine D1 receptors.

Amino acid sequences for entries named in this document (tags omitted).
UniProt P21728, whole entry: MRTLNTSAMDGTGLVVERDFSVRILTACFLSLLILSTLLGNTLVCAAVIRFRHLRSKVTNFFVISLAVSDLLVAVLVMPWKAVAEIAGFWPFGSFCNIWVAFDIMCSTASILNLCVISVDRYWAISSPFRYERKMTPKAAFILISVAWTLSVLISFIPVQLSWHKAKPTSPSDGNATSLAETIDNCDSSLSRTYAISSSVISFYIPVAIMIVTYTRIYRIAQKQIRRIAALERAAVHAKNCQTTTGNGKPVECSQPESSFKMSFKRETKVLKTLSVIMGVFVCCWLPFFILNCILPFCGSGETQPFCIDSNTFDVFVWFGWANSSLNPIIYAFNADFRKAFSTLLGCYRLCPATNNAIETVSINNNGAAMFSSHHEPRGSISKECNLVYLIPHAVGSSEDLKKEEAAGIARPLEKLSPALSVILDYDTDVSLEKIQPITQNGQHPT

Structures are written as SMILES.

The term Ki denotes the equilibrium dissociation constant of an inhibitor or competing ligand from its target. Low readings indicate higher affinity, high ones lower affinity.

For `CN1CCN2c3c(cccc31)[C@@H]1CN(CCCC(=O)c3ccc(F)cc3)CC[C@@H]12` [lumateperone, 4-((6bR,10aS)-3-methyl-2,3,6b,9,10,10a-hexahydro-1H-pyrido[3′,4′: 4,5]pyrrolo[1,2,3-de]quinoxaline-8(7H)-yl)-1-(4-fluorophenyl)-1-butanone], the affinity, expressed as Ki, was 52 nM.

(Values after US20260294901A1 (INTRA-CELLULAR THERAPIES, INC., priority 2025, published 2026).)
